Laboratory results published in paper PMC10108392, “Rimonabant-Based Compounds Bearing Hydrophobic Amino Acid Derivatives as Cannabinoid Receptor Subtype 1 Ligands” (ACS Medicinal Chemistry Letters, 2023).

Protein sequences, listed by entry. Tags and fused reporters are not part of them.
UniProt P20272, whole entry: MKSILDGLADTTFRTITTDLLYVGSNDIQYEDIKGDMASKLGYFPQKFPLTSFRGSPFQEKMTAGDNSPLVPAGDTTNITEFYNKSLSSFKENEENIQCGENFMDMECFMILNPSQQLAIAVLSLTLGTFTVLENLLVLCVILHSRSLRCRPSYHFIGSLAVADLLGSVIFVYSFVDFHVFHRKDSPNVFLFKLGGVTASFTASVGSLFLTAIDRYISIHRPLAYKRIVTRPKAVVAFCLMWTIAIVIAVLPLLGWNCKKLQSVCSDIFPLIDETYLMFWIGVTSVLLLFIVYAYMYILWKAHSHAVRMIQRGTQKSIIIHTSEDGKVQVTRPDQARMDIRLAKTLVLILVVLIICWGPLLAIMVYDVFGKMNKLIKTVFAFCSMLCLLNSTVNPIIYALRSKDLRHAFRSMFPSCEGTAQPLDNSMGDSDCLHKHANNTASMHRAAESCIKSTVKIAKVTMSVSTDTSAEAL

Biological target: T1, CB1R (Rattus norvegicus, UniProt P20272)
T1 construct: Crude membrane fractions were prepared from the brain; from tissue; host or cells: Wistar rat whole brain, crude membrane fraction
Assay: Ligand stimulated [35S]GTPγS binding assay in rat brain membranes
Type: biochemical
Details: read-out: [35S]GTPγS stimulation Emax
Procedure: Our novel chemical compounds were tested in vitro for their binding ability, efficacy, and potency on CB1R in rat brain membrane homogenate (Table 2 and SI, Figure S1). CB1Rs are the most abundant G-protein coupled receptors in the rodent and mammalian brain; therefore, this is an appropriate model to characterize our ligands in a more physiological system.
In Vitro Biological Assays
Preparation of Brain Membrane Homogenates
Wistar rats were locally bred and handled according to the EU Directive 2010/63/EU and to the Regulations on Animal Protection (40/2013. (II. 14.) Korm. r.) of Hungary. Crude membrane fractions were prepared from the brain. Brains were quickly removed from the euthanized rats and directly put in an ice-cold 50 mM Tris-HCl buffer (pH 7.4). The collected tissue was then homogenized in 30 volumes (v/w) of an ice-cold buffer with a Braun Teflon-glass homogenizer at the highest rpm. The homogenate was centrifuged at 20,000 × g for 25 min, and the resulting pellet was suspended in the same volume of a cold buffer followed by incubation at 37 °C for 30 min to remove endogenous ligands. Centrifugation was then repeated. The final pellets were taken up in five volumes of a 50 mM Tris-HCl (pH 7.4) buffer containing 0.32 M sucrose and stored at -80 °C. Prior to the experiment, aliquots were thawed and centrifuged at 20,000 ×g for 25 min and then they were resuspended in 50 mM Tris-HCl (pH 7.4), homogenized with a Douncer, followed by the determination of the protein concentration by the method of Bradford. The membrane suspensions were immediately used either in radioligand binding experiments or in [35S]GTPγS functional assays. […]
was terminated by diluting the samples with an ice-cold wash buffer (50 mM of Tris-HCl, 2.5 mM of EGTA, 5 mM of MgCl2, 0.5% fatty acid free BSA, pH 7.4), followed by repeated washing and rapid filtration through Whatman GF/B glass fiber filters (Whatman Ltd., Maidstone, UK) pre-soaked with 0.1% polyethyleneimine (30 min before the filtration). Filtration was performed with a 24-well Brandel Cell Harvester (Gaithersburg, MD, USA). Filters were air-dried and immersed into Ultima Gold MV scintillation cocktail, and then radioactivity was measured with a TRI-CARB 2100TR liquid scintillation analyzer (Packard, Perkin Elmer, Waltham, MA, USA).
Ligand Stimulated [35S]GTPγS Binding Assay
Rat brain membranes (30 µg protein/tube), prepared as described above, were incubated with 0.05 nM of […]
mM of NaCl, 3 mM of MgCl2 and 1 mM of EGTA in a 50 mM Tris-HCl buffer (pH 7.4) for 60 min at 30 °C. Basal [35S]GTPγS binding was measured in the absence of ligands and set as 100%. Nonspecific […]
binding was determined by the addition of 10 µM unlabelled GTPγS and subtracted from total binding.
Incubation, filtration and radioactivity measurements of the samples were carried out as described above. […]
All

Row | SMILES | Emax [%]
1 | CC(C)[C@H](NC(=O)c1cc(-n2cccc2)n(-c2ccc(Cl)cc2)n1)C(=O)O [Compound 1, RS2689-Val-OH] | 63 ± 13
2 | CC(C)(C)[C@H](NC(=O)c1cc(-n2cccc2)n(-c2ccc(Cl)cc2)n1)C(=O)O [Compound 2, RS2689-tLeu-OH] | 74 ± 2.5
3 | Cc1c(C(=O)N[C@H](C(=O)O)C(C)C)nn(-c2ccc(Cl)cc2)c1-n1cccc1 [Compound 3, RS2691-Val-OH] | 51 ± 5.6
4 | Cc1c(C(=O)N[C@H](C(=O)O)C(C)(C)C)nn(-c2ccc(Cl)cc2)c1-n1cccc1 [Compound 4, RS2691-tLeu-OH] | 66 ± 10
5 | CC(C)[C@H](NC(=O)c1cc(-n2cccc2)n(-c2ccccc2)n1)C(=O)O [Compound 5, RS2708-Val-OH] | 79 ± 4.9
6 | CC(C)(C)[C@H](NC(=O)c1cc(-n2cccc2)n(-c2ccccc2)n1)C(=O)O [Compound 6, RS2708-tLeu-OH] | 80 ± 7.3
7 | Cc1c(C(=O)N[C@H](C(=O)O)C(C)C)nn(-c2ccccc2)c1-n1cccc1 [Compound 7, RS2709-Val-OH] | 82 ± 18
8 | Cc1c(C(=O)N[C@H](C(=O)O)C(C)(C)C)nn(-c2ccccc2)c1-n1cccc1 [Compound 8, RS2709-tLeu-OH] | 74 ± 14
9 | Cc1c(C(=O)N[C@H](C(=O)O)C(C)C)nn(-c2ccc(Cl)cc2Cl)c1-n1cccc1Cl [Compound 9, RS3516-Val-OH] | 50 ± 15
10 | Cc1c(C(=O)N[C@H](C(=O)O)C(C)(C)C)nn(-c2ccc(Cl)cc2Cl)c1-n1cccc1Cl [Compound 10, RS3516-tLeu-OH] | 49 ± 10
11 | CC(C)[C@H](NC(=O)c1cc(-n2cccc2)n(-c2ccc(Cl)cc2)n1)C(N)=O [Compound 11, RS2689-Val-NH2] | 68 ± 9
12 | CC(C)(C)[C@H](NC(=O)c1cc(-n2cccc2)n(-c2ccc(Cl)cc2)n1)C(N)=O [Compound 12, RS2689-tLeu-NH2] | 101 ± 1.8
13 | Cc1c(C(=O)N[C@H](C(N)=O)C(C)C)nn(-c2ccc(Cl)cc2)c1-n1cccc1 [Compound 13, RS2691-Val-NH2] | 97 ± 6
14 | CC(C)[C@H](NC(=O)c1cc(-n2cccc2)n(-c2ccccc2)n1)C(N)=O [Compound 15, RS2708-Val-NH2] | 53 ± 3.8
15 | CC(C)(C)[C@H](NC(=O)c1cc(-n2cccc2)n(-c2ccccc2)n1)C(N)=O [Compound 16, RS2708-tLeu-NH2] | 76 ± 4
16 | Cc1c(C(=O)N[C@H](C(N)=O)C(C)C)nn(-c2ccccc2)c1-n1cccc1 [Compound 17, RS2709-Val-NH2] | 46 ± 12
17 | COC(=O)[C@@H](NC(=O)c1nn(-c2ccc(Cl)cc2)c(-n2cccc2)c1C)C(C)C [Compound 23, RS2691-Val-OCH3] | 45 ± 13
18 | COC(=O)[C@@H](NC(=O)c1cc(-n2cccc2)n(-c2ccccc2)n1)C(C)C [Compound 25, RS2708-Val-OCH3] | 54 ± 5
19 | COC(=O)[C@@H](NC(=O)c1nn(-c2ccccc2)c(-n2cccc2)c1C)C(C)C [Compound 27, RS2709-Val-OCH3] | 52 ± 7
20 | COC(=O)[C@@H](NC(=O)c1nn(-c2ccc(Cl)cc2Cl)c(-n2cccc2Cl)c1C)C(C)(C)C [Compound 30, RS3516-tLeu-OCH3] | 48 ± 8
21 | CNC(=O)[C@@H](NC(=O)c1cc(-n2cccc2)n(-c2ccc(Cl)cc2)n1)C(C)C [Compound 31, RS2689-Val-NHCH3] | 55 ± 5
22 | CNC(=O)[C@@H](NC(=O)c1nn(-c2ccc(Cl)cc2)c(-n2cccc2)c1C)C(C)C [Compound 33, RS2691-Val-NHCH3] | 94 ± 2
23 | CNC(=O)[C@@H](NC(=O)c1cc(-n2cccc2)n(-c2ccccc2)n1)C(C)C [Compound 35, RS2708-Val-NHCH3] | 76 ± 9
24 | CNC(=O)[C@@H](NC(=O)c1cc(-n2cccc2)n(-c2ccccc2)n1)C(C)(C)C [Compound 36, RS2708-tLeu-NHCH3] | 98 ± 1.6
25 | CNC(=O)[C@@H](NC(=O)c1nn(-c2ccc(Cl)cc2Cl)c(-n2cccc2Cl)c1C)C(C)C [Compound 39, RS3516-Val-NHCH3] | 47 ± 8
26 | CNC(=O)[C@@H](NC(=O)c1nn(-c2ccc(Cl)cc2Cl)c(-n2cccc2Cl)c1C)C(C)(C)C [Compound 40, RS3516-tLeu-NHCH3] | 77 ± 4
